These are literature values, as cited in paper PMC2845799.

The target of the series is FRB domain FRB (Homo sapiens) (UniProt P42345).

On to FKBP FKBP domain (from UniProt P62942), for which the Kd – broadly, the concentration at which binding is half-saturated – was under 1 nM.
